# scFv variants of Ab-14 (heavy chain) against a SARS-CoV-2 spike peptide

Source: Li et al. 2023 (doi:10.1038/s41467-023-39022-2), MIT Lincoln Laboratory and A-Alpha Bio; data file from the FLAb repository.

Target peptide (SARS-CoV-2 spike, HR2 region): PDVDLGDISGINAS

Each scFv is VH, a (GGGGS)3 linker, VL, as in the parent Ab-14, and differs from it in the CDRs of the heavy chain only.
VH: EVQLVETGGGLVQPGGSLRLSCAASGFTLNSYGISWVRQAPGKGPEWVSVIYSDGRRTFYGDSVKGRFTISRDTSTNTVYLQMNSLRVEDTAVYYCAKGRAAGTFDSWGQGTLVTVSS
VL: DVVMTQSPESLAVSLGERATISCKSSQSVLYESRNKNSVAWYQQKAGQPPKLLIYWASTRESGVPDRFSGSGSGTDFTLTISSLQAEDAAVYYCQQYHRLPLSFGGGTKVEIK

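The starting antibody came from a phage panning campaign against this peptide. This is the validation round: designs drawn from the data on random variants, tested in the same kind of assay. Several design methods are mixed in this list. Affinity was read by AlphaSeq, a pooled yeast mating assay with surface-displayed partners. Binding brings cells together so that they mate, and sequencing counts the barcode pairs among the diploids. Scores were corrected for input abundance and mapped to Kd with protein pairs of known affinity run in the same pool. There are six technical replicates.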

Each variant is given by its three heavy chain CDRs, as the data file delimits them; those of the parent are GFTLNSYGIS, VIYSDGRRTFYGDSVK, GRAAGTFDS. This list holds designs with at most six substitutions. Values are apparent Kd, the geometric mean of the replicates that gave a signal; lower means stronger binding. Where no diploid with the target was found in any replicate, the entry reads "not detected": below detection, most likely a poor binder, though not proof of it. A sequence measured in both rounds can read differently, since the two assays cover different ranges.

CDR-H1,CDR-H2,CDR-H3,apparent Kd,seen in
GFTLESYGIS,VIYSDGRRTFYDDSVK,GWGAGTFDS,not detected,0/6
GFSLNSYGIS,VIYSDGKRTFYSDSVK,GQAAGTFDS,2.0 nM,6/6
GFSLNWYGIS,VIYSDGRRTFYADSVK,GREAGTFDS,6.9 nM,6/6
GFNLNSYGIS,VIYSDGRRTFYDDSVK,GKLAGTFDS,2.9 nM,6/6
GFRLNEYGIS,VIYSDGRRTFYTDSVK,GRFAGTFDS,11 nM,6/6
YFTLNSYGIS,VIYADGRRTFYGDSVK,GKAAGTFDS,4.1 nM,1/6
GFTLNSYGIS,VIYSDGRRTFYSDSVK,GRAAGTFDV,4.2 nM,6/6
GFTLNKYGIS,VIYSDGRRTFYLDSVK,GRAAGTFDS,12 nM,6/6
KFTLNEYGIS,VIYSDGRRTFYTDSVK,GRNAGTFDS,6.6 nM,4/6
GFSLNWYGIS,VIYSDGRRTAYGDSVK,GRQAGTFDS,1.9 nM,5/6
GFDLNSYGIS,VIYSDGRTTFYGKSVK,YRAAGWFNS,not detected,0/6
GFTLNSYGIS,VIYSDGRRTFYADSVK,GQVAGTFDT,4.7 nM,6/6
GFTLDSYGPS,VIYSDGRRTFYGDSVK,GRAAGTVLS,not detected,0/6
GFTLNEYGIH,VIYSDGRRTGYGDSVK,GRAAGTFDS,not detected,0/6
GFTLNSYGIS,VIYSDGRRTFYLDAVK,GRAAQTFWS,not detected,0/6
GFTLNQYGIS,VIYSDGRRTFYLDSVK,GRAAGTFDS,18 nM,6/6
GFTLDSYGIS,VIYSDGRRTFYGDSVK,GRAAGTFSD,42 nM,2/6
GFSLNSYGIS,VIYSDGRRTFYIDSVK,GKLAGTFDS,9.2 nM,1/6
GFHLNSYGIS,VIYSDGRRTFYGDSVK,GRTAGTFDT,31 nM,6/6
GFTLNSYGIS,VIFSDGRRTFYHDSVK,GRAGGTFDS,100 nM,3/6
GFTLNSYGIS,VIYSDGRRTFYGDSVK,GHVAGTFDT,18 nM,6/6
GFTLNSYGIS,VIYSDGRRTFYGDSVK,GRVTGTFDT,not detected,0/6
GETLNSYGIS,VIYSDGRRTFYGDSVK,GRAAGTSDS,not detected,0/6
GFTLNEYGIS,VIYSDGRRTFYGDSVK,GREAVTFDQ,not detected,0/6
GFTLNSYGVS,VIYSDGVRTQYIDSVK,GRAATTFDS,not detected,0/6
RFTLNSYGIS,VIYSDGFRTDYGDSVK,GPAAITFDS,not detected,0/6
GFTLNSYGIS,VIYSDARRTFYHDSVK,GRDAGTFDS,not detected,0/6
GFTLNQYGIS,VIYSDGCRSFYSDSVK,GRAAKFFDS,2.8 nM,6/6
GFSLNEYGIS,VIYSDGRRTFYGDSVK,GKAAGTFDN,330 pM,3/6
GFTLSSYGIS,VIYADGRRTFYTDSVK,GRAAGTFDS,3.0 nM,6/6
KFQLNSYGIS,VIYSDGRRTFYSDSVK,GRTAGTFDS,86 pM,1/6
KFNLNSYGIS,VIYSDGRRTFYVDSVK,GRTAGTFDS,not detected,0/6
GFSLNEYGIS,VIYSDGRRTFYVDSVK,GRTAGTFDS,1.4 nM,6/6
GFNLNSYGIS,VIYSDGRRTFYGDSVK,GQAAGTFDD,58 nM,3/6
GFTMSSYGIS,VIYSDGRRTFYDDSVK,GQLKGTFDS,not detected,0/6
GFTLNSYGIS,VIYSDGRRTFYGDSVK,GKLAGTFDS,8.8 nM,5/12
GFHLQSYGIS,VIYSDGRRTFYIDSVK,GRSAGTFDL,not detected,0/6
GFTLNSYGIS,VIYSDGERTFYGDSVK,GRAAGTFDS,22 nM,6/6
GFDLNSYGIS,VIYSDGRRTFYGDNVK,GRSAGTFDS,14 nM,4/6
GFDLNSYGIS,VIYSDGRRTFYGDSVK,GKEAGTFDD,1.5 nM,6/6
GFNLNSYGIS,VIYSDGRRTFYHDVVK,GRAAWTFDS,not detected,0/6
GFTLNQYGIS,VIYSDGRRTFYGGSVK,GRAAGTFDS,9.7 nM,1/6
GFTLNEYGIS,VIYSDGSRTFYTDSVK,GRTAGTFDS,3.4 nM,6/6
GNTLNDYGIS,VYYSDGRRTQYIDSVK,GRAAGTFDS,1.0 µM,1/6
GFTLESYGIS,VIYADGRRTFYGDHVK,GRAAGTFDS,8.5 nM,5/6
GFALNEYGIS,VIYSDGRRTFYQDSVK,GRTAGTFDS,2.1 nM,6/6
GFQLNQYGIS,VIYSDGRRTFYSDSVK,GRAAGTFDS,1.4 nM,6/6
GFNLNSYGIS,VIYADMRRTFYGDSVK,GQAAGTFDS,7.7 nM,1/6
GFNLNSYGSS,VIYSDGLRTAYGDQVK,GRAAGWFDS,not detected,0/6
GFTLEDYGIS,VIYSDGRRTFYGDSVK,GRAAGIFDS,not detected,0/6
GFVLNEYGIS,VIYSDGRRTFYGDSVK,GRTAGTFDS,5.8 nM,6/6
GFTLNSYGIS,VIYSDGRRTQYGDSVK,GRAAGTIDY,not detected,0/6
GFTLNSYGIS,VIYSDGKRTFYIDSVK,GRTAGTFDS,not detected,0/6
GFTLNSYGIS,VIYSDGRRTFYSDSVK,GRAAVTFDD,not detected,0/6

Top 3 of the variants detected in all replicates, tightest first:

CDR-H1,CDR-H2,CDR-H3,apparent Kd,seen in
GFSLNEYGIS,VIYSDGRRTFYVDSVK,GRTAGTFDS,1.4 nM,6/6
GFQLNQYGIS,VIYSDGRRTFYSDSVK,GRAAGTFDS,1.4 nM,6/6
GFDLNSYGIS,VIYSDGRRTFYGDSVK,GKEAGTFDD,1.5 nM,6/6

A sequence that the file lists under several names has all its replicates pooled. Nonspecific signal, from three strains lacking the peptide, appeared in 1% of pairings of all heavy chain designs, centred on 120 nM (5% of these signals below 7.0 nM); values are not corrected for it. The authors' rule: three or more of the six replicates give a measured affinity, fewer mean a poor binder.